Protein sequences, listed by entry. Tags and fused reporters are not part of them.
UniProt P48436, whole entry: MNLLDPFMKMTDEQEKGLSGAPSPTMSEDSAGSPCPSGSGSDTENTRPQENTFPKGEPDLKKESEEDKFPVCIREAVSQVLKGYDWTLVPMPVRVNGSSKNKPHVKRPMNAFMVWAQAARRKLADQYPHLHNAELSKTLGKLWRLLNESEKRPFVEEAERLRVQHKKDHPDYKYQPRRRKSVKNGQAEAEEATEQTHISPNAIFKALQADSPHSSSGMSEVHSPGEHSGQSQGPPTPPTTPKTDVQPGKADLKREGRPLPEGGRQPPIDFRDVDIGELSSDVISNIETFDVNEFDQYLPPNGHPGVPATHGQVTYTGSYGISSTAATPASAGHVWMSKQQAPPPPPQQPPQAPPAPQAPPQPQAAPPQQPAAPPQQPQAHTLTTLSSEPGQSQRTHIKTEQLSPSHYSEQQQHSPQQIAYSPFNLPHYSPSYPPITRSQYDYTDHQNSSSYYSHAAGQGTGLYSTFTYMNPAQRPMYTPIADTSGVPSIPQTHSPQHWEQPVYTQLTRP
UniProt Q7M6Y2, whole entry: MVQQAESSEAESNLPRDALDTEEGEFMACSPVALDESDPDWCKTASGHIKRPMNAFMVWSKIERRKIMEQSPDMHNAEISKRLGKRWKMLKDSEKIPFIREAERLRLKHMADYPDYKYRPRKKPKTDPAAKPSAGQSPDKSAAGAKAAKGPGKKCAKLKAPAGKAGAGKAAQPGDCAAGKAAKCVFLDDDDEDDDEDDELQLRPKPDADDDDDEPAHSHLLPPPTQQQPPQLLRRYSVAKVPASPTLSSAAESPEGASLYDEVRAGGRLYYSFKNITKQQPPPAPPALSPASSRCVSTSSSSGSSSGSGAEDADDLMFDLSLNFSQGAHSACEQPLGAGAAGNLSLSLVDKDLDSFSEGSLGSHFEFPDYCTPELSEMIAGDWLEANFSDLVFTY
UniProt Q9H6I2, whole entry: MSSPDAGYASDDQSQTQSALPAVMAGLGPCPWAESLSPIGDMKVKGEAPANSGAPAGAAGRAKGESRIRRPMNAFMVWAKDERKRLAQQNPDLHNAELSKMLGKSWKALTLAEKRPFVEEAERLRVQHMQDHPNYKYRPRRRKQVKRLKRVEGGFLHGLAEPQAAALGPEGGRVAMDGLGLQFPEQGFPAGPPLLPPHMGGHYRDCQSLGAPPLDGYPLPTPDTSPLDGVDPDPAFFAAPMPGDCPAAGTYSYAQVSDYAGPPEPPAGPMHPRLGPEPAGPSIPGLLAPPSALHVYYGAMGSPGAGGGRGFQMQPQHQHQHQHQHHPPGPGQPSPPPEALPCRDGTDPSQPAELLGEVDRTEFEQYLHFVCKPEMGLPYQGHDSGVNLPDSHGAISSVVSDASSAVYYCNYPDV

In US20240002326A1, “COMPOUNDS AND USE THEREOF IN METHODS OF TREATMENT” (The University of Queensland, priority 2016, published 2024):

Key:
SOX9 = SOX9 (Homo sapiens (Human), UniProt P48436); test: Cell based reporter assay for SOX9 activity (Col2a1:luc, COS-7); conditions: any tested concentration (≤50 μM)
Sodium Channel, Site 2 = test: Off-target radioligand binding, Sodium Channel Site 2; conditions: Site 2, Rat
GABAA, Flunitrazepam = test: Off-target radioligand binding, GABAA Flunitrazepam; conditions: Rat
SOX11 HMG fragment = SOX11 HMG fragment (Mus musculus, UniProt Q7M6Y2); test: FP DNA-binding competition assay, SOX11 HMG fragment; conditions: read-out: DNA-binding inhibition IC50, SOX11 HMG; HMG only fragment
Protocol: Mouse SOX HMG fragments. The HMG domains of mouse SOX2 (Group B), SOX11 (Group C), SOX6 (Group D), SOX9 (Group E), SOX18 (Group F) and SOX15 (Group G) were BP cloned from cDNA templates (IMAGE cDNA clone IDs: Sox18: 3967084; Sox9: 5354229; Sox4: 6822618) into a pDONRTM221 pENTRY vector, sequenced and recombined into a pETG20A or a pHisMBP expression plasmid using Gateway®LR Technology (Ng et al., 2012). Constructs were transformed into Escherichia coli BL21(DE3) cells (Luria-Bertani, 100 μg/ml Ampicillin).
The DNA-binding competition assay was performed in black 384-well plates, with mouse full length SOX18, or SOX-HMG fragments. All experiments were performed using a fluorescently-labelled Prox1-DNA element. […]
The DNA-binding competition assay was performed in 25 uL, in black 384-well plates, using either 30 mM HEPES (N-2-Hydroxyethylpiperazine-N′-2-Ethanesulfonic Acid) (pH 7.5, with 100 mM KCl, 40 mM NaCl, 10 mM NH4OAc, […], 2 mM MgCl2, 0.5 mM EDTA, 0.01% NP-40) for mouse full length SOX18, or Tris-NaCl (10 mM Tris pH 8.0 and 100 mM NaCl) for SOX-HMG fragments. […] After mixing protein, DNA probe and compound, plates were sealed and briskly agitated in the dark for 5 minutes at room temperature, 10 minutes at 37° C., and 30 minutes at room temperature, before reading fluorescence polarization on a Tecan M1000Pro (λexc=485 nm, λem=525 nm). […]

SOX17-OCT4 = SOX17-OCT4 (Homo sapiens (Human), UniProt Q9H6I2); test: ALPHA-Screen SOX17-OCT4 interaction; format: binding; conditions: 50 uM Sm4
Text: The genetically encoded tags used here are enhanced GFP (GFP), mCherry (Cherry) and cMyc (myc). The proteins were cloned into the following cell free expression Gateway destination vectors respectively: N-terminal GFP tagged (pCellFree_G03), N-terminal Cherry-cMyc (pCellFree_G07) and C-terminal Cherry-cMyc tagged (pCellFree_G08) (Gagoski et al. 2015). The Open Reading Frames (ORFs) corresponding to the human SOX7 (BC071947), SOX17, RBPJ (BC020780) and MEF2C (BC026341) were sourced from the Human ORFeome collection version 1.1 and 5.1 or the Human Orfeome collaboration OCAA collection (Open Biosystems) as previously described and cloned at the ARVEC facility, UQ Diamantina Institute. […]
The ALPHA-Screen Assay was performed as previously described (Sierecki et al. 2014), using the cMyc detection kit and Proxiplate-384 Plus plates (PerkinElmer). A serial dilution of each sample was measured. […] The ALPHA-Screen signal was obtained on an Envision Multilabel Plate Reader (PerkinElmer), using the manufacturer's recommended settings (excitation: 680/30 nm for 0.18 s, emission: 570/100 nm after 37 ms). […] The Binding Index was calculated as: BI=[(I−I_neg)/(I_ref−I_neg)]×100
For PPI disruption assay, protein pairs expressed in LTE were incubated for 1 h with 100 μM Sm4 or DMSO alone (0.7% DMSO final). 100 μM Sm4 or DMSO was also added to buffer B. PPI disruption was calculated as: (1−I_Sm4/I_DMSO)×100.

SOX9-SOX9 = SOX9-SOX9 (Homo sapiens (Human), UniProt P48436); test: ALPHA-Screen SOX9 homodimerization; conditions: up to 200 μM

O=C(O)c1c(O)cccc1CCc1ccc2ccccc2c1
transcriptional activity of SOX9 (SOX9): did not affect
Inhibition at 10 μM (%) (Sodium Channel, Site 2): −13%
Inhibition at 10 μM (%) (GABAA, Flunitrazepam): −6%
IC50 (SOX11 HMG fragment): 270 to 310 µM
SOX17-OCT4 interaction (SOX17-OCT4): affected
SOX9 homodimerization (SOX9-SOX9): unperturbed
